{"sequences": {"note": "By UniProt entry, the sequences of proteins in these tests, tags left out.", "UniProt P08912, whole entry, looked up": "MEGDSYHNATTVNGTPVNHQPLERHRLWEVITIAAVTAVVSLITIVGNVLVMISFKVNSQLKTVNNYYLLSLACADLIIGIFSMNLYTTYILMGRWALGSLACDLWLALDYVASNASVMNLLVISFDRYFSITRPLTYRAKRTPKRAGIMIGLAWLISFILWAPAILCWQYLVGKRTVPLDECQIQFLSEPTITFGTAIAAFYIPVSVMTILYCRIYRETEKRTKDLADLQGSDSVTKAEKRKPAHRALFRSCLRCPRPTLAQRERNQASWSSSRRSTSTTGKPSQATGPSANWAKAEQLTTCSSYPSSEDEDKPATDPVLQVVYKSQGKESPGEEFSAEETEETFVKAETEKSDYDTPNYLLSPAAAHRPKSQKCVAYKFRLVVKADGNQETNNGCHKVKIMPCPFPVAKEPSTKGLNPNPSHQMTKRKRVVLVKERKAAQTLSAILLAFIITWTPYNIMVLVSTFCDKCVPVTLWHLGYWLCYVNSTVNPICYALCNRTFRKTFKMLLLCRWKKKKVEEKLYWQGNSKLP"}, "source": "PubChem BioAssay AID624038", "about": "(The Scripps Research Institute Molecular Screening Center, 2012)", "note": "This is a selection; strong and weak results do not stand in their true shares. Active and inactive are the calls of the source.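 How the source made its calls: active means activation above the run cutoff, the mean activation of all test compounds plus 3 SD (cut at about 18% in these data); inactive means the rest.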"}
{"biological_target": "Muscarinic acetylcholine receptor M5 (Homo sapiens) (UniProt P08912)", "experiment": "human M5 muscarinic receptor positive allosteric modulators, primary screen, CHO-K1 cells, Fluo-8 calcium fluorescence (AID 624038)", "details": "CHO-K1 hM5, Fluo-8 calcium, ACh EC20 PAM; at 3 µM; hits give high values; 0% = ACh EC20, 100% = ACh EC100"}
{"smiles": "Cc1cc(=O)[nH]c(N[N+](=O)[O-])n1", "activation": "inactive: -6.67%"}
{"smiles": "CCN(CC)C(=S)SC(NC=O)C(Cl)(Cl)Cl", "note": "(centres undefined)", "activation": "inactive: -7.18%"}
{"smiles": "O=C(OC1CN2CCC1CC2)c1cccc2[nH]cnc12", "note": "(centres undefined)", "activation": "inactive: 13.6%"}
{"smiles": "CC(C)NC(=O)NP(=O)(Oc1ccccc1)Oc1ccccc1", "activation": "inactive: 5.75%"}
{"smiles": "O=[N+]([O-])c1cc([N+](=O)[O-])c(-c2ccn[nH]2)s1", "activation": "inactive: -3.72%"}
{"smiles": "ClCCSc1nnc(-c2cccnc2)o1", "activation": "inactive: -0.64%"}
{"smiles": "CC(C)c1ccc(OP(=O)(Nc2ccccn2)Oc2ccccc2F)cc1", "note": "(centres undefined)", "activation": "inactive: -1.06%"}
{"smiles": "COC(=O)C1(C)COP(=O)(N2CCCCCC2)OC1", "note": "(centres undefined)", "activation": "inactive: -3.04%"}
{"smiles": "Cc1ccc(OP(=O)(Nc2ccc([N+](=O)[O-])cn2)Oc2ccc(C)cc2)cc1", "activation": "inactive: 1.4%"}
{"smiles": "[N-]=[N+]=NC1CCCCC1NC(=O)c1cc([N+](=O)[O-])cc([N+](=O)[O-])c1", "note": "(centres undefined)", "activation": "inactive: -1.18%"}
{"smiles": "CC(Cc1ccc(O)cc1)NCC(O)c1cc(O)cc(O)c1", "note": "(centres undefined)", "activation": "inactive: 3.01%"}
{"smiles": "Cc1ccc2nc3c(c(C)c2c1)CC(C(Cl)Cl)S3", "note": "(centres undefined)", "activation": "inactive: -2.58%"}
{"smiles": "O=[As](O)(c1ccc(O)cc1)c1ccccc1O", "activation": "inactive: 8.78%"}
{"smiles": "C[As](=O)(O)c1cccc(C(=O)O)c1", "activation": "inactive: -3.35%"}
{"smiles": "O=[N+]([O-])c1ccc(-c2cc([N+](=O)[O-])c(O)c([N+](=O)[O-])c2)cc1", "activation": "inactive: -0.1%"}
{"smiles": "N#CCCN(C(=O)COC(=O)C(O)(c1ccccc1)c1ccccc1)c1ccc(F)cc1", "activation": "inactive: -3.65%"}
{"smiles": "CN(C(=O)Cc1ccccc1)[C@@H]1CC[C@]2(CCCO2)C[C@H]1N1CCCC1", "activation": "inactive: 2.71%"}
{"smiles": "CCOP1(=S)c2c(C)nn(CCC#N)c2N=C(c2ccc(F)cc2)N1C", "note": "(centres undefined)", "activation": "inactive: -5.98%"}
{"smiles": "CN(C)C(=O)c1cc([N+](=O)[O-])cc2c1-c1c(cc([N+](=O)[O-])cc1[N+](=O)[O-])C2=O", "activation": "inactive: 5.69%"}
{"smiles": "O=[N+]([O-])c1ccc2c(c1)nnn2O", "activation": "inactive: -2.78%"}
{"smiles": "CN(C(=O)Cc1ccc(Cl)c(Cl)c1)[C@H]1CC[C@@]2(CCCO2)C[C@@H]1N1CCCC1", "activation": "inactive: -1.96%"}
{"smiles": "NC(=O)Nc1ccc([As](=O)(O)O)cc1", "activation": "inactive: -0.09%"}
{"smiles": "O=C(O)COc1ccc([As](=O)(O)O)cc1[N+](=O)[O-]", "activation": "inactive: 14.3%"}
{"smiles": "Nc1ccccc1[As](=O)(O)c1ccccc1", "activation": "inactive: 12.2%"}
{"smiles": "CCOP1(=S)c2c(C)nn(CCC#N)c2N=C(c2ccccc2F)N1C", "note": "(centres undefined)", "activation": "inactive: -6.15%"}
{"smiles": "O=P(Nc1nccs1)(c1ccccc1)c1nc2ccccc2s1", "note": "(centres undefined)", "activation": "inactive: 2.93%"}
{"smiles": "O=P(Nc1nccs1)(Oc1ccccc1)Oc1ccccc1", "activation": "inactive: 4.71%"}
{"smiles": "CS(=O)(=O)c1cc([N+](=O)[O-])c2no[n+]([O-])c2c1", "activation": "inactive: 2.58%"}
{"smiles": "COc1cc(C2NCCC3(OCCO3)C2(C)C)cc(OC)c1OC", "note": "(centres undefined)", "activation": "inactive: 0.64%"}
{"smiles": "CCOP(=O)(Nc1cccc2ccccc12)OCC", "activation": "inactive: 5.84%"}
{"smiles": "Cc1ccc(NCCc2c([N+](=O)[O-])cc([N+](=O)[O-])cc2[N+](=O)[O-])cc1", "activation": "inactive: 3.63%"}
{"smiles": "Nc1cccc2c([As](=O)(O)O)cccc12", "activation": "inactive: 1.43%"}
{"smiles": "CCCOP(=S)(Nc1nc(N)cc(=O)[nH]1)OCCC", "activation": "inactive: -0.68%"}
{"smiles": "C[C@H]1C(=O)O[C@@H]2CCN3CC=C(COC(=O)[C@](C)(O)[C@]1(C)O)[C@H]23", "activation": "inactive: 4.04%"}
{"smiles": "O=[As](O)(c1cccc(O)c1)c1cccc(O)c1", "activation": "inactive: 4.18%"}
{"smiles": "Cc1cccc(OCC(=O)OC2CN3CCC2CC3)c1", "note": "(centres undefined)", "activation": "inactive: -14.5%"}
{"smiles": "O=C(OC1CN2CCC1CC2)c1ccc(Cl)cc1", "note": "(centres undefined)", "activation": "inactive: -22.7%"}
{"smiles": "O=[As](O)(O)c1cccnc1", "activation": "inactive: 4.15%"}
{"smiles": "CS(=O)(=O)c1ccc(Cl)c(NC(=O)COC(=O)C(O)(c2ccccc2)c2ccccc2)c1", "activation": "inactive: 0.12%"}
{"smiles": "CN(C(=O)Cc1ccc(Cl)c(Cl)c1)[C@@H]1CCCC[C@H]1N1CCCC1", "activation": "inactive: 0.44%"}
{"smiles": "CC(C)/C=N\\N=C(\\N)N[N+](=O)[O-]", "activation": "inactive: -1.01%"}
{"smiles": "CC1(CBr)Cn2c(nc3ccccc3c2=O)S1", "note": "(centres undefined)", "activation": "inactive: -2.25%"}
{"smiles": "COc1ccccc1CNC(=O)COC(=O)C(O)(c1ccccc1)c1ccccc1", "activation": "inactive: -1.01%"}
{"smiles": "Clc1n[nH]nc1-c1nn[nH][15n]1", "activation": "inactive: -2.32%"}
{"smiles": "O=P1(N(CCCl)CCCl)NCCC(C(F)(F)F)O1", "note": "(centres undefined)", "activation": "inactive: -2.2%"}
{"smiles": "CC(C)(C)C(=O)NC(Sc1ncccn1)C(Cl)(Cl)Cl", "note": "(centres undefined)", "activation": "inactive: 9.67%"}
{"smiles": "CCC1=CC2Cc3nc4ccc(Cl)cc4c(N)c3C(C1)C2", "note": "(centres undefined)", "activation": "inactive: -13.5%"}
{"smiles": "O=P1(Nc2ccccn2)COc2ccccc2OC1", "activation": "inactive: 1.26%"}
{"smiles": "CCOP(=O)(NC(=NC(C)c1ccccc1)NC(C)c1ccccc1)OCC", "note": "(centres undefined)", "activation": "inactive: 4.29%"}
{"smiles": "CN(CCCl)Cc1cc(Cl)c(NC2=NCCN2)c(Cl)c1", "activation": "inactive: 4.39%"}
{"smiles": "CCOP(=O)(Nc1ccc(C)cn1)OCC", "activation": "inactive: -2.22%"}
{"smiles": "Nc1cccc([As](=O)(O)c2ccccc2)c1", "activation": "inactive: -2.75%"}
{"smiles": "NS(=O)(=O)c1cccc(NC(=O)COC(=O)C(O)(c2ccccc2)c2ccccc2)c1", "activation": "inactive: -7.64%"}
{"smiles": "O=P1(Nc2ccc(Br)cn2)COc2ccccc2OC1", "activation": "inactive: -0.29%"}
{"smiles": "Cc1ccc(OCC(=O)OC2CN3CCC2CC3)cc1", "note": "(centres undefined)", "activation": "inactive: -24.5%"}
{"smiles": "O=[As](O)(c1cccs1)c1cccs1", "activation": "inactive: 2.91%"}
{"smiles": "Cc1ccc(S(=O)(=O)N(CCCN)CCCc2c(C)nc(N)[nH]c2=O)cc1", "activation": "inactive: 3.41%"}
{"smiles": "O=P1(Nc2ncccn2)COc2ccccc2OC1", "activation": "inactive: 0.12%"}
{"smiles": "O=C(/C=C/c1ccccc1)OC1CN2CCC1CC2", "note": "(centres undefined)", "activation": "inactive: 0.97%"}
{"smiles": "CCCC1OP(=O)(Nc2ccccc2)OCC1CC", "note": "(centres undefined)", "activation": "inactive: 8.54%"}
{"smiles": "Cc1nn(-c2ccccc2)c2c1P(=O)(N1CCOCC1)N(C)C(c1ccccc1)=N2", "note": "(centres undefined)", "activation": "inactive: 3.94%"}
{"smiles": "Cc1ccc(C(=O)OC2CN3CCC2CC3)cc1", "note": "(centres undefined)", "activation": "inactive: -4.67%"}
{"smiles": "CC1CCC(C(C)C)C(OP(=O)(Nc2ccccn2)c2ccccc2)C1", "note": "(centres undefined)", "activation": "inactive: -9.58%"}
{"smiles": "O=C(OC1CN2CCC1CC2)c1cccc(Cl)c1", "note": "(centres undefined)", "activation": "inactive: -17.5%"}
